Test [1] deals with Gli-dependent luciferase reporter. Put plainly: Gli-dependent luciferase reporter assay in EAC cell lines. The test is classed as cell-based, human. On the procedure:
Because Gli protein activity is a useful readout for the HH pathway (Jiang and Hui, 2008), the inventors employed a Gli-dependent luciferase reporter system (Sasaki et al., 1997) to evaluate the influence of TNFα on the HH pathway in three EAC cell lines, BE3, SKGT-4, and OE33 (Boonstra et al., 2010). […] Then, the inventors compared the activity of HH pathway in EAC cells stimulated by SHH or TNFα.
Cells were seeded in six-well plates and transfected with GliBS or mGliBS combined with CMV-Renilla vector as an internal standard. After overnight (12-16 hr) transfection, the cells were used for further experiments. After treatment, the cells were rinsed with PBS and subjected to luciferase assay using a dual-luciferase reporter assay system (Promega) based on the manufacturer's instruction.
(In a reporter assay the amount or activity of a reporter protein is the signal.)

The test system of test [2] is EAC cell lines and BE3 Gli1 stable clones. Description: IC50 evaluation for cyclopamine and GDC-0449 (cell growth). It is filed as cell-based, human. To be noted: 48 hr. As to the method:
FIGS. 7A-7G. Effects of mTOR and/or HH pathway inhibitors on EAC cells. FIG. 7A. The expression of activated SHH (SHH-N) in EAC cell lines and the cell culture medium. FIG. 7B. The mRNA levels of Gli1 target genes in EAC cell lines with or without SHH treatment (1 μg/mL). The mRNA levels of Gli1 target genes are normalized to ACTIN. Error bars represent SD (n=3). FIG. 7C. IC50 of cyclopamine (top two panels) or GDC-0449 (bottom two panels) for the Gli1 stable clones. Error bars represent SD (n=4). FIG. 7D. IC50 of cyclopamine (top two panels) or GDC-0449 (bottom two panels) for the Gli1 stable clones with existence of TNFα (5 ng/mL). Error bars represent SD (n=4). FIG. 7E. IC50 of cyclopamine (top two panels) or GDC-0449 (bottom two panels) for EAC cells pre-treated with rapamycin (Rapa, 10 nM). Error bars represent SD (n=4). FIG. 7F. IC50 of cyclopamine (top two panels) or GDC-0449 (bottom two panels) for the Gli1 stable clones with rapamycin (Rapa, 50 nM) treatment. Error bars represent SD (n=4). FIG. 7G. In vivo combination therapy for subcutaneously inoculated tumors from BE3 cells using GDC-0449 (50 mg/kg) or RAD001 (10 mg/kg). […] The tumor volume measured and calculated using the formula: l×w^2, where l is the longest diameter and w is the shortest diameter. […]

Molecules are shown by their SMILES.

Take `CC1=C2C[C@H]3[C@@H](CC=C4C[C@@H](O)CC[C@@]43C)[C@@H]2CC[C@]12O[C@@H]1C[C@H](C)CN[C@H]1[C@H]2C` [cyclopamine]: the “constitutive activation of HH pathway in EAC cell lines” value in test [1] (Gli reporter, EAC cell lines, FIG. 9A) was “can be inhibited”. The “mTOR/S6K1-mediated Gli1 activation” value in test [1] (SMO inhibitors) was “had little effects”. Also, the “TNFα-induced Gli activity” value in test [1] (TNFα 5 ng/mL, 24 hr, cyclopamine 0.5, 1, 5 μM, rapamycin 10, 50, 100 nM, WYE-354 10, 20, 40 nM) is listed as “did not affect”. Further, in test [2], the “IC50 value in BE3/S84E compared with BE3/EV, BE3/Gli1 and BE3/S84A” value is “much higher”.
